Data on two compounds can be found in PubChem BioAssay AID598 (SRMLSC, 2007).

Only a part is listed here, and it is no random draw. Some tests of the compounds listed are not included; inactive here does not mean inactive elsewhere. Activity calls are given as the source filed them.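 The calls were made as follows: active = viability at or below 40%; inactive = viability above 40%.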

The experiment in a line: proliferation blockers of H69AR lung cancer cells, primary screen, cell-based, human, 86K library (AID 598).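 Also: multidrug resistant small cell line overexpressing MRP-1 efflux transporter; 100% = mean luminescence of untreated control wells.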 As to conditions: H69AR lung tumor viability, ATP luminescence, 72 h; at 10 µM; hits give low values.
For the compound `CN(C)c1cccc(C(=O)NCC2(N(C)C)CCCCC2)c1`, the viability is inactive: 68%. Under `O=C(OC1CN2CCC1CC2)C(CO)(c1ccccc1)c1ccccc1` (configuration not stated) stands inactive: 87.4%.
